# Results from PubChem BioAssay AID1347120 (National Center for Advancing Translational Sciences (NCATS), 2019).
# The list shows a part of the results, in another mix than the full data. Results filed as inconclusive are left out. Some salts or complexes appear as unconnected parts, following the source record. Calls of active or inactive are those of the source. Calls come from the whole dose curve; as a rule, active = well fitted activation curve with a large enough effect; inconclusive = small, poorly fitted or top-dose-only effect; inactive = no such curve, though single readings can be large or run the other way.
# Experiment: qHTS for Suppressors of FUS Proteinopathy: Primary screen using FUS-linked yeast assay;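 note: plate controls were DMSO vehicle for no effect and reference control for full effect; nearly all actives have a fitted effect of over 55% in size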
# Details: S. cerevisiae FUS-expressing, OD600, 24 h; at 76.6 µM (top of the series)
# From the text: Several widespread neurodegenerative diseases, including Alzheimer disease, Huntington disease, Frontotemporal Lobar Degeneration (FTLD) and Amyotrophic Lateral Sclerosis (ALS), share a common pathological feature, namely accumulation of specific protein aggregates in diseased tissue. These diseases which is associated with protein misfolding (proteinopathies) have become increasingly problematic as the population ages and life expectancies are extended. Most proteinopathies are currently incurable, a situation confounded by the fact that the basis of neurodegeneration is generally poorly understood. There exists urgent and significant need to find therapeutics that can inhibit the toxicity associated with protein aggregation. A novel approach to understand the underlying mechanisms of neurodegenerative diseases has recently emerged in which the disease conditions are modeled in the yeast (Saccharomyces cerevisiae), a tractable eukaryotic organism with conserved protein quality control mechanisms. Yeast offers quick and reliable genetic manipulations and can be easily tailored to high-throughput screening (HTS).
# For this project, a yeast model of the FUS proteinopathies (a spectrum of neurodegenerative diseases that include ALS and a subtype of FTLD) was generated and employed. The cytoplasmic accumulation of the DNA/RNA-binding protein FUS (also known as TLS) is causative to both familial and sporadic forms of ALS and FTLD. This yeast model recapitulates neuronal pathology by showing severe cytotoxicity associated with cytoplasmic accumulation of FUS aggregates and a specific interaction between FUS and TDP-43, another ALS-associated protein. […] Specifically, the cellular accumulation of misfolded FUS that disrupts RNA homeostasis in both yeast and higher eukaryotes. This model was validated to be suitable for quantitative HTS (qHTS) use for finding genetic or chemical factors that restore growth. […] Identified compounds that inhibits FUS-yeast toxicity is flagged, re-acquired, and validated for further investigation and optimization.
# NIH Chemical Genomics Center [NCGC]
# NIH Molecular Libraries Probe Production Centers Network [MLPCN]
# Assay Submitter (PI): Frank Shewmaker PhD, Uniformed Services University of the Health Sciences
# Compound CP55940 was used as the positive control. Column 1 was treated with CP55940 titration from 92uM (final concentration, 1:2 dilution), while Column 2 was treated with top dose 92uM. Columns 3 and 4 were treated with DMSO only as negative control to assess background and noise signal.
# Four hundred fifty microliter of cultured yeast (in 20mL rich medium) provided by Dr. Shewmaker lab was incubated at 30C at 99% humidity for 3hr. The culture was then spun down at 4000rpm for 5min and the cell pellet was resuspended in 2mL of Sdmin Media + ALU(330) + 2.5% Raffinose. One hundred microliter of the suspension was added to 900uL of water and OD of the solution was obtained. Twenty mL of responding medium (provided by Shewmaker lab) + 2.5% raffinose was added to ensure cell density of 0.1; the solution was incubated overnight. Working cell solution (FUS-yeast in Sdmi + Sdmi + 1X ALU + 2% galactose media) was prepared (final OD at 0.005) and 3uL was dispensed in a 1536-well Aurora high based clear bottom assay plates. Controls and library compounds (at various final concentrations from 40uM to 0.32uM) were added using a 1536-well pin array using the Kalypsys pin-tool. The plates were then incubated for 24hrs in a cell-culture incubator (30C; 99% humidity). Absorbance at 600nm was then read using the PerkinElmer ViewLux plate reader.
row,Structure (SMILES),growth rescue (activation)
1,Cc1cccc(NC2(C#N)CCN(Cc3ccccc3)CC2)c1,inactive: -8.55%
2,O=C(NCC1(N2CCCCC2)CCCCC1)c1ccc(=O)[nH]c1,inactive: -13.6%
3,CCCCn1nnnc1C(c1cccs1)N1CCC(n2c(=O)[nH]c3ccccc32)CC1 (centres undefined),inactive: -13.5%
4,O=C(NCC1(N2CCCCC2)CCCCC1)c1cccs1,inactive: 6.88%
5,CCCCn1nnnc1C(CC)N1CCC(n2c(=O)[nH]c3ccccc32)CC1 (centres undefined),inactive: -2.5%
6,COc1ccc(C(=O)NCC2(N3CCCCC3)CCCCC2)cc1,inactive: 22.5%
7,CCC(c1nnnn1C1CCCC1)N1CCC(n2c(=O)[nH]c3ccccc32)CC1 (centres undefined),inactive: 16.7%
8,CC(C)(C)OC(=O)N1CCC(N(C(=O)c2ccccc2)c2ccc(F)cc2)CC1,inactive: -9.63%
9,COc1ccc(C(=O)NCC2(N3CCCCC3)CCCCC2)c(OC)c1OC,inactive: 18.4%
10,O=c1[nH]c2ccccc2n1C1CCN(C(c2cccc3ccccc23)c2nnnn2C2CCCC2)CC1 (centres undefined),inactive: 25.6%
11,COc1cc(C(=O)NCC2(N(C)C)CCCCC2)ccc1OC(F)F,inactive: 14.8%
12,CCOC(=O)N1CCC(Nc2cccc(C)c2)CC1,inactive: -8.18%
13,O=c1[nH]c2ccccc2n1C1CCN(C(c2ccccc2)c2nnnn2C2CCCCC2)CC1 (centres undefined),inactive: 17.2%
14,O=C(NCC1(N2CCCCC2)CCCCC1)c1ccc(F)cc1,inactive: -0.403%
15,CCCCn1nnnc1C(c1cc2ccccc2o1)N1CCC(n2c(=O)[nH]c3ccccc32)CC1 (centres undefined),inactive: 11.4%
16,O=P1(N(CCCl)CCCl)SCCCS1,inactive: 24.4%
17,CCCCOc1ccc(C(=O)NCC2(N3CCOCC3)CCCCC2)cc1,inactive: 8.83%
18,COc1ccc(NC2CCN(CCc3ccccc3)CC2)c(OC)c1,inactive: 17.4%
19,CCOC(=O)N1CCC(Nc2ccc(F)cc2)CC1,inactive: -12.4%
20,COc1ccccc1C(=O)NCC1(N2CCOCC2)CCCCC1,inactive: -11.7%
21,CCOc1ccc(C)cc1CN(CCCl)CCCl,inactive: -0.668%
22,O=C(NCC1(N2CCOCC2)CCCCC1)c1ccc(Cl)cc1,inactive: -29.1%
23,CC(C)(C)n1nnnc1C(c1ccccc1)N1CCC(n2c(=O)[nH]c3ccccc32)CC1 (centres undefined),inactive: -3%
24,O=C1CCN(Cc2ccccc2)CC1,inactive: 10.8%
25,CC(C)c1ccc(C(=O)NCC2(N3CCOCC3)CCCCC2)cc1,inactive: 8.49%
26,COc1ccc(NC2CCN(C(=O)OC(C)(C)C)CC2)cc1,inactive: 3.81%
27,COc1cc(C(=O)NCC2(N3CCCCC3)CCCCC2)ccc1OC(F)F,inactive: 2.27%

row,Structure (SMILES),growth rescue (activation)
1,O=C(NCC1(N2CCOCC2)CCCCC1)c1cc(=O)[nH]c2ccccc12,inactive: -20.7%
2,CCCOc1cccc(C(=O)NCC2(N3CCOCC3)CCCCC2)c1,inactive: -3.03%
3,O=[N+]([O-])c1cc([N+](=O)[O-])c(NCC2CCS(=O)(=O)C2)c([N+](=O)[O-])c1 (centres undefined),inactive: 1.82%
4,O=C(NCC1(N2CCCCC2)CCCCC1)c1cccc([N+](=O)[O-])c1,inactive: -35%
5,CCOc1ccc(C(=O)NCC2(N3CCOCC3)CCCCC2)cc1,inactive: -9.7%
6,CSc1ccc(C(=O)NCC2(N3CCOCC3)CCCCC2)cc1,inactive: 15.5%
7,CCN1CCC(Nc2ccc(Cl)cc2)CC1,inactive: 8.71%
8,N#CC1(Nc2ccccc2)CCN(CCc2ccccc2)CC1,inactive: -37.9%
9,O=c1[nH]c2ccccc2n1C1CCN(C(c2ccccc2OC(F)(F)F)c2nnnn2C2CCCC2)CC1 (centres undefined),inactive: 10.1%
10,O=C(NCC1(N2CCCCC2)CCCCC1)c1ccc(OC(F)F)cc1,inactive: -2.7%
11,Cc1ccc(C(=O)NCC2(N(C)C)CCCCC2)o1,inactive: -47.2%
12,CCCCOc1ccccc1C(=O)NCC1(N2CCOCC2)CCCCC1,inactive: 11.5%
13,CCCOc1ccc(C(=O)NCC2(N(C)C)CCCCC2)cc1OC,inactive: 17.4%
14,O=C(NCC1(N2CCOCC2)CCCCC1)c1ccccc1Br,inactive: -0.802%
15,O=[N+]([O-])c1cc([N+](=O)[O-])c(Nc2ccc(Cl)cc2)c([N+](=O)[O-])c1,inactive: 1.45%
16,COc1ccc(C(c2nnnn2C2CCCC2)N2CCC(n3c(=O)[nH]c4ccccc43)CC2)cc1 (centres undefined),inactive: 27.6%
17,COc1ccc2c(c1O)-c1c(O)c(OC)cc3c1[C@H](C2)[N+](C)(C)CC3.O=[N+]([O-])c1cc([N+](=O)[O-])c([O-])c([N+](=O)[O-])c1[O-],inactive: 0.554%
18,O=C(OC1CN2CCC1CC2)c1ccc([N+](=O)[O-])cc1 (centres undefined),inactive: 13.5%
19,COc1cc(OC)c(C(=O)NCC2(N(C)C)CCCCC2)cc1OC,inactive: 5.55%
20,CCC(c1nnnn1C(C)(C)C)N1CCC(n2c(=O)[nH]c3ccccc32)CC1 (centres undefined),inactive: 4.97%
21,O=C(NCC1(N2CCOCC2)CCCCC1)c1cc(F)c(F)cc1Cl,inactive: -28.4%
22,CCN(CC)CCCNc1ccccc1[N+](=O)[O-].O=[N+]([O-])c1cc([N+](=O)[O-])c(O)c([N+](=O)[O-])c1,inactive: -13.7%
23,COC(=O)C1(Nc2ccccc2)CCN(Cc2ccccc2)CC1,inactive: -12.8%
24,COc1ccc(CN(CCCl)CCCl)cc1Cl,inactive: 25.8%
25,O=[N+]([O-])c1cc([N+](=O)[O-])c(OC2CCCCC2O)c([N+](=O)[O-])c1 (centres undefined),inactive: 27.1%
26,CN(C)c1cccc(C(=O)NCC2(N3CCCCC3)CCCCC2)c1,inactive: -1.42%
27,CC(C)c1ccc(NC2CCN(C(=O)OC(C)(C)C)CC2)cc1,inactive: 23.8%
